In PubChem BioAssay AID1645851 (National Center for Advancing Translational Sciences (NCATS), 2021):
This is a selection; strong and weak results do not stand in their true shares. Some tests of the compounds listed are not included; inactive here does not mean inactive elsewhere. Active and inactive are the calls of the source. Cut-off read from the data, not from the text of the source: active = activity change below about -25%; inactive = the rest.

By UniProt entry, the sequences of proteins in these tests, tags left out.
UniProt Q92551, whole entry: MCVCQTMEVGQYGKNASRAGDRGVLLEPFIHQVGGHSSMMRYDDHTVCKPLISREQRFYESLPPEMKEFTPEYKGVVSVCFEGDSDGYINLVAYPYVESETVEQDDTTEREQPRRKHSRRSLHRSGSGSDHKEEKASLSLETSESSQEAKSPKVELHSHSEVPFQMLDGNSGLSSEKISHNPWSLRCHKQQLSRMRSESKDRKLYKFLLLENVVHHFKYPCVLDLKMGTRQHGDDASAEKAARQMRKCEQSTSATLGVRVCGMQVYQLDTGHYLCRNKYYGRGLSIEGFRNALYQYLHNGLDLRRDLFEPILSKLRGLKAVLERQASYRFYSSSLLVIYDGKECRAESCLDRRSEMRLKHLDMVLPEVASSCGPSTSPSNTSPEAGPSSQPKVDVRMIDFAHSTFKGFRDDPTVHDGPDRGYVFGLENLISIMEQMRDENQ

The molecules below were run against Inositol hexakisphosphate kinase 1 (Homo sapiens) (UniProt Q92551) (assay: Primary qHTS assay for small molecule inhibitors of Inositol hexaphosphate kinase 1 (IP6K1)). Details: ADP-Glo luminescence, 2 h, active compounds read low.
Text: Assay Provider: Huijun Wei, M.S., Ph.D. School of Medicine, Johns Hopkins University, Baltimore, MD Inositol hexakisphosphate kinases (IP6Ks) catalyze pyrophosphorylation of inositol hexakisphosphate (IP6) into inositol 5-diphospho-1,2,3,4,6-pentakisphosphate (IP7), which is involved in numerous areas of cell physiology including glucose homeostasis, blood coagulation and neurological development. Inhibition of IP6Ks may be effective for the treatment of Type II diabetes, thrombosis, and psychiatric disorders. We performed a quantitative high throughput screen (qHTS) of 158,410 compounds for IP6K1 inhibitors using ankinase activity ADP-Glo Max assay. […] Medicinal chemistry SAR efforts in three chemical series identified potent IP6K1 inhibitors, which were further validated in an orthogonal LC-MS IP7 analysis.
PROTOCOL TABLE SEQUENCE No. (e.g., 1, 2, 3, etc.); […] (e.g., Cells, Incubation, Reagent, etc.); VALUE and DESCRIPTION. 1. Reagent, 3 uL of 1.3 mM ATP and 130 uM IP6 mixture in assay buffer was dispensed to a white, 1536-well assay plate. 2. Compound, 23 nL of compounds of the top two doses (57.5 uM and 19.1 uM final concentration) of the libraries were dispensed into the mixture using the Kalypsis pintool. 3. Reagent, 1 uL of 2.4 uM IP6K1 was dispensed to the assay plates. 4. Incubation, 2 hr incubation at room temperature. 5. Reagent, 2 uL of ADP-Glo reagent was added to the wells. 6. Incubation, 1 hr incubation at room temperature. 7. Reagent, 4 uL or ADP-Glo substate was added to the wells. 8. Incubation, 45 min incubation at room temperature. 9. Detection, luminescence signal was detected using the ViewLux microplate imager (PerkinElmer).
% is set by controls: 0 for no effect and ±100 for the full control effect.
Note: series mostly up to about 58 µM.

**Q.** With CN(C)C1(CNC(=O)c2cccc(Cl)c2)CCCCC1 as the molecule, how does the activity change read?
**A.** The activity change was inactive: 6.17%.

**Q.** With CN(C)C1(CNC(=O)c2ccccc2F)CCCCC1 as the molecule, how does the activity change read?
**A.** The activity change was inactive: -7.76%.

**Q.** With CCOc1cccc(C(=O)NCC2(N(C)C)CCCCC2)c1 as the molecule, how does the activity change read?
**A.** Its activity change is inactive: -2.32%.

**Q.** Which activity change does the source give for CN(C)C1(CNC(=O)c2ccccc2[N+](=O)[O-])CCCCC1 here?
**A.** Its activity change is inactive: 12.4%.

**Q.** CCCCOc1ccccc1C(=O)NCC1(N(C)C)CCCCC1 was tested. Which activity change did it give?
**A.** The activity change was inactive: 19%.

**Q.** How did the activity change turn out when COc1ccc(C(=O)NCC2(N(C)C)CCCCC2)cc1Cl was run?
**A.** The activity change was inactive: 22.1%.

**Q.** How did the activity change turn out when Cc1cccc(C(=O)NCC2(N(C)C)CCCCC2)c1 was run?
**A.** Its activity change is inactive: -7.42%.

**Q.** How did the activity change turn out when COc1cc(C(=O)NCC2(N(C)C)CCCCC2)cc(OC)c1OC was run?
**A.** The activity change was inactive: 15.3%.

**Q.** With CC(C)Oc1ccc(C(=O)NCC2(N(C)C)CCCCC2)cc1 as the molecule, how does the activity change read?
**A.** Its activity change is inactive: -23.1%.

**Q.** Which activity change does the source give for COc1cccc(C(=O)NCC2(N3CCOCC3)CCCCC2)c1 here?
**A.** Its activity change is inactive: 1.58%.

**Q.** With CC(C)COc1ccc(C(=O)NCC2(N(C)C)CCCCC2)cc1 as the molecule, how does the activity change read?
**A.** The activity change was inactive: 13.5%.
